{
  "sequences": {"note": "Protein sequences, listed by entry. Tags and fused reporters are not part of them. Residues count along the entry.", "UniProt P02763, 19-201": "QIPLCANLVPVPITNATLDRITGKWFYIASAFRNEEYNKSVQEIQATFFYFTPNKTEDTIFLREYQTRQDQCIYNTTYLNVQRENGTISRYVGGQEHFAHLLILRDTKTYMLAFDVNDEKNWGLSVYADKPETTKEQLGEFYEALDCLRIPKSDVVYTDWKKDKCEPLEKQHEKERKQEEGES"},
  "source": "paper PMC10488149",
  "about": "(International Journal of Molecular Sciences, 2023)",
  "key": {"[1]": {"target": "T1, α1-acid glycoprotein (AGP) (Homo sapiens, UniProt P02763)", "assay_type": "binding", "settings": "AGP with ligand", "method": "The Hill fitting was performed with OriginLab.\nThe evaluation of molar enthalpies (ΔHm) and entropies (ΔSm) at the melting temperature for the melting process was calculated assuming a two-state native-to-unfolded model. The molar ratios at different temperatures were determined using the linear extrapolations of plateau at T >> Tm and T << Tm for the Boltzmann fitting curves, assuming that only denatured protein was present at T >> Tm and only native at T << Tm. The reversibility was assumed to be around Tm ± 5 °C, and the relative molar ratios for native and denatured species was used to determine the equilibrium constants and the associated Gibbs free energy (ΔGm, from ΔGm = −RT·lnK). Following the given relationship, ΔGm was supposed to be ~0 at the Tm (K^(Tm) ~ 1). ΔHm and ΔSm were calculated at Tm by interpolating with a linear model the ±5 °C region of the ΔGm vs. T curve around Tm, assuming the intercept corresponding to ΔHm, previous correction from °C to Kelvin, and the slope to −ΔSm, assuming a y = a − bx model, where ΔGm^(Tm) = ΔHm^(Tm) − TmΔSm^(Tm) at ΔGm^(Tm) = 0.\nFor the thermal denaturations, Boltzmann fitting with the equation y = y0 + A * (frac/(1 + exp ((x − x01)/k1)) + (1 − frac)/(1 + exp((x − x02)/k2))) was used. The SRCD spectra as a function of temperature were recorded with B23 module B with synchrotron operation at 300 or 350 mA, using rotating cell for thermal denaturation with 0.02 cm cell pathlength, 0.5 mm slit, 1 sec integration time, and 1 nm increment in the 260–180 nm spectral region."}, "[2]": {"target": "T1, α1-acid glycoprotein (AGP)", "experiment": "in vitro", "settings": "Kd by CD far-UV (180–260), CD at 195 nm versus ligand concentration, Hill equation, unit from b19 and Figure 5"}},
  "data": [
    {"smiles": "Cc1c(N)nc([C@H](CC(N)=O)NC[C@H](N)C(N)=O)nc1C(=O)N[C@H](C(=O)N[C@H](C)[C@@H](O)[C@H](C)C(=O)N[C@H](C(=O)NCCc1nc(-c2nc(C(=O)NCCC[S+](C)C)cs2)cs1)[C@@H](C)O)[C@@H](O[C@@H]1O[C@@H](CO)[C@@H](O)[C@H](O)[C@@H]1O[C@H]1O[C@H](CO)[C@@H](O)[C@H](OC(N)=O)[C@@H]1O)c1c[nH]cn1", "note": "[A2, bleomycin A2]", "values": [
      {"measurement": "Tm (°C) [A]", "setting": "[1]; Boltzmann fitting of experimental data, 195 nm, AGP alone 52.3", "value": 59.4, "unit": "°C"},
      {"measurement": "Tm (°C) [B]", "setting": "[1]; T at which ΔGm,Tm = 0, 195 nm, AGP alone 52.9", "value": 59.5, "unit": "°C"},
      {"measurement": "ΔHm, Tm", "setting": "[1]; linear fitting around Tm, AGP alone 127.8", "value": 239.6, "unit": "kJ^.mol^−1"},
      {"measurement": "ΔSm, Tm", "setting": "[1]; linear fitting around Tm, AGP alone 392.1", "value": 720.6, "unit": "J·K^−1·mol^−1"},
      {"measurement": "Kd", "setting": "[2]", "value": 1.36, "unit": "µM"}
    ]}
  ]
}
